Test [1] concerns the target T1, LSF (Homo sapiens, UniProt Q12800). Nature of the test: LSF-dependent luciferase reporter assay in NIH 3T3 cells. The following applies: read-out: LSF-reporter assay IC50. The procedure:
NIH 3T3 cells were transfected with the expression construct pEF1α-LSF, a LSF expression vector^6,20; the reporter construct pGL3B-WT4E1b, a firefly luciferase reporter vector driven by LSF^12; phRL-TK, a control renilla luciferase reporter vector; and pEFGP, essentially as previously described^12. Five hours after transfection, either vehicle (DMSO) or FQI compound was added, keeping DMSO at 0.5%. Cell extracts were harvested 36 hours post-transfection and firefly and renilla luciferase activities measured via a dual luciferase assay (Promega). Five μl of extract was mixed with 30 μl of luciferase assay reagent (Promega), and luminescence measured for 10 seconds using a 20/20n luminometer (Turner Biosystems). Subsequently, 30 μl of Stop & Glo reagent (Promega) was added, and luminescence also measured for 10 seconds. LSF transactivation activity is given as relative luciferase activity, the ratio of firefly to renilla activities.
NIH-3T3 cells were cultured at 37° C. in 5% CO2 in DMEM (Dulbecco's modification of Eagle's Medium; Corning) supplemented with 10% FCS (FCS; Atlanta Biologicals). Approximately 24 hours prior to transfection, 200,000 cells were plated in 35 mm dishes. After 24 hours, cells were ˜70% confluent, and were transfected for 5 hours with pEF1α-LSF, the reporter construct pGL3B-WT4E1b, phRLTK, and pEFGP (Grant, T. J. et al. Antiproliferative small-molecule inhibitors of transcription factor LSF reveal oncogene addiction to LSF in hepatocellular carcinoma. PNAS (2012), 109, 1-6). Vehicle (DMSO) or FQI-34 was then added, keeping the DMSO at 0.5%. Cell extracts were harvested 36 h post-transfection, and firefly and renilla luciferase activities were measured via a dual luciferase assay (Promega Dual-Luciferase Reporter Assay System). Relative luciferase activity represents firefly luciferase activity normalized to that of renilla luciferase in each extract. IC50 values were determined from plots of normalized luciferase activity vs. compound concentration (Prism GraphPad; non-linear regression 4-parameter curve fit with variable slope). LSF-Target affinity IC50 was 0.59 μM (FIG. 12).

The chains behind the UniProt entries cited, without tags or fusion partners.
UniProt Q12800, whole entry: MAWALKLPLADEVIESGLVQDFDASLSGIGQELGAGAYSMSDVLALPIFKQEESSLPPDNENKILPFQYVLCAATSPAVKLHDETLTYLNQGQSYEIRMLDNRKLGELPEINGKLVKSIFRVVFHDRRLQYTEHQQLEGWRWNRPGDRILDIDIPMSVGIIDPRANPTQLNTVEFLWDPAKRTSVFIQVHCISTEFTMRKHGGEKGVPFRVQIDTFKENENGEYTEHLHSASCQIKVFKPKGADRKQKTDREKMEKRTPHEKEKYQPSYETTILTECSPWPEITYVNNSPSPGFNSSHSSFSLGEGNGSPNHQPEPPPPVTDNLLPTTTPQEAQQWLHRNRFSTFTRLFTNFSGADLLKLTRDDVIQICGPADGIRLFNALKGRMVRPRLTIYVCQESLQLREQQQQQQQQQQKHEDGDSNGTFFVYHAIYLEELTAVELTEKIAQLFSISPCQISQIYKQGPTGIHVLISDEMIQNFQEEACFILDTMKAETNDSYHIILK

A further test relates to QGY-7703 cells. Nature of the test: Cell viability GI50 (MTS), QGY-7703. The following applies: read-out: QGY-7703 GI50. The method, then: QGY-7703 and A549 cells were cultured at 37° C. in 5% CO2 in DMEM (Dulbecco's modification of Eagle's Medium; Corning) supplemented with 10% Fetal Bovine Serum (FBS; Invitrogen). NIH-3T3 cells were cultured at 37° C. in 5% CO2 in DMEM supplemented with 10% Fetal Calf Serum (FCS; Atlanta Biologicals). For cell viability assays, 1,500 cells were seeded in 96-well plates and treated with FQI-34 or vehicle (DMSO) at appropriate concentrations (DMSO at 1%) after 20 hours. After 72-hour incubation with compound or vehicle, cell growth was assessed via the Promega CellTiter 96® AQueous One Solution Cell Proliferation Assay, a colorimetric method to determine the number of viable cells. 20 μL of the CellTiter 96® AQueous One Solution Reagent was added directly into cultured wells and incubated for one hour, after which the absorbance at 490 nm was read with a 96-well plate reader (Opys MR Microplate Reader). The CellTiter 96® AQueous One Solution contains an MTS tetrazolium compound which is bioreduced by cells into a colored formazan product that is soluble in tissue culture medium. The quantity of formazan product as measured by absorbance is directly proportional to the number of living cells in culture. GI50 values were determined from plots of the percentage of compound-treated cell growth to vehicle cell growth vs. compound concentration (GraphPad Prism; non-linear regression 4-parameter curve fit with variable slope). GI50 values were 0.26 μM in QGY-7703 cells, 1.8 μM in A549 cells and 1.49 μM in NIH-3T3 cells (FIGS. 11A-11C)

Test [2] concerns the target T1, LSF. Nature of the test: Cellular Thermal Shift Assay (CETSA), LSF. The following applies: Table 5, YES/NO. The method, then:
Drug-target engagement was assessed using CETSA as described by Molina et al. (Monitoring Drug-Target Engagement in Cells and Tissues Using Cellular Thermal Shift Assay. Science (2013) 341, 84-87). QGY-7703 cells were cultured at 37° C. in 5% CO2 in DMEM (Dulbecco's modification of Eagle's Medium; Corning) supplemented with 10% Fetal Bovine Serum (FBS; Invitrogen). Cells were seeded into 10 cm plates and allowed to reach 60-80% confluency. After trypsinization (0.05% Trypsin-EDTA, Invitrogen), cell pellet was washed twice with ice-cold 1×PBS (137 mM NaCl, 2.7 mM KCl, 10 mM Na2HPO4, 2 mM KH2PO4, pH 7.2). Cell pellet was lysed by addition of 200 μL freshly prepared ice-cold RIPA buffer (10 mM Tris-Cl pH 8.0, 1 mM EDTA, 0.5 mM EGTA, 1% Triton X-100, 0.1% sodium deoxycholate, 0.1% SDS, 140 mM NaCl) supplemented with 1 mM Pefabloc (Sigma-Aldrich), and flash frozen in liquid nitrogen and thawed for a total of three cycles. Cell lysate was centrifuged at 20,000×g for 20 minutes to clarify. Supernatant was either treated immediately or saved at −80° C. for future use. […]
Immunoblots were quantified using Image J and graphed using GraphPad PRISM. Area-under-the-curve (AUC) for the quantified western blots were calculated with GraphPad PRISM and non-parametric t-test was calculated to determine statistical significance between the curves. […]

Like-named read-outs stand apart in the source and are kept apart here.

As for `CCOc1cc(F)ccc1C1CC(=O)Nc2cc3c(cc21)OCO3` (stereo not shown), the IC50 at LSF [1] (Table 8) stood at 2900 nM. Moreover, the GI50 in the test on QGY-7703 cells (Table 5) and in the test on QGY-7703 cells (Table 8) was 1500 nM each time.
For `CCOc1cc(Cl)ccc1C1CC(=O)Nc2cc3c(cc21)OCO3` (stereo not shown), the IC50 on LSF [1] (Table 5) and at LSF [1] (Table 8) was 1730 nM each time. The GI50 in the test on QGY-7703 cells (Table 5) and in the test with QGY-7703 cells (Table 8) was 310 nM in each case. In addition, the “LSF CETSA” value on LSF [2] is on record as “YES”.
As for `CCOc1cc(Br)ccc1C1CC(=O)Nc2cc3c(cc21)OCO3` (stereo not shown), the IC50 at LSF [1] (Table 5) and at LSF [1] (Table 8) was 1820 nM throughout. Moreover, the GI50 in the test on QGY-7703 cells (Table 5) and with QGY-7703 cells (Table 8) was 650 nM throughout. For the same compound, the “LSF CETSA” value on LSF [2] is “YES”.

(Values after patent publication US10392398B2, “Inhibitors of Late SV40 Factor (LSF) as cancer chemotherapeutics” (TRUSTEES OF BOSTON UNIVERSITY, priority 2010, dated 2019).)
